Experimental findings from publication PMC3962266 (Journal of medicinal chemistry, 2013) are described below.

A short description of series [1]: In vivo PK in mice, IV and PO.
For series [2], the system named is human platelet-rich plasma. Nature of the series: Platelet aggregation assay. The class given is cell-based.

What is called inhibition is the drop in the measured response relative to a control, in per cent. As to `CCCCNc1ncc(C(=O)NCc2ccc(-n3ccnc3)cc2)c(N[C@H]2CC[C@H](O)CC2)n1` [Compound 23], the “Volume of distribution relative to normal volume of total body water (0.70 L/kg)” value in series [1] came out at 2 fold. The “Inhibition of collagen-induced platelet aggregation (in words)” value in series [2] is “potently inhibits”. In addition, in series [2] (Homo sapiens, Platelet, read-out: Inhibition of platelet aggregation), the inhibition at 3 µM is > 25%.
